Here are results for three molecules from patent publication US6756210B2 (dated 2004).

The chains behind the UniProt entries cited, without tags or fusion partners. Where a name states a change or a piece, a line headed by the entry shows the natural chain unless it says otherwise.
UniProt P80299: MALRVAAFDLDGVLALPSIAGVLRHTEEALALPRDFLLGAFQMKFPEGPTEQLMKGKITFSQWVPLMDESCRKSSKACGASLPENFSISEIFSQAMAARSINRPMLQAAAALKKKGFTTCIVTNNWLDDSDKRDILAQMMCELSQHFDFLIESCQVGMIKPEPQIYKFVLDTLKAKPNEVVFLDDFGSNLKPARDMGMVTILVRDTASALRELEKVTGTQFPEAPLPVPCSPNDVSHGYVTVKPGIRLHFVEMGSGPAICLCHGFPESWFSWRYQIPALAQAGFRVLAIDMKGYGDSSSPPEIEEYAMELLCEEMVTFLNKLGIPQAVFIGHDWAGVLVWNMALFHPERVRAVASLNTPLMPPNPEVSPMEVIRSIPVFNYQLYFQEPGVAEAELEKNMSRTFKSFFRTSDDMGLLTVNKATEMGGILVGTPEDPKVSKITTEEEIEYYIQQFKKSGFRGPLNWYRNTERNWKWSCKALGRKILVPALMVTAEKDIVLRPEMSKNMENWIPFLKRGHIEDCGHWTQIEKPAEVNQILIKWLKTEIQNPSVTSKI
UniProt P34914: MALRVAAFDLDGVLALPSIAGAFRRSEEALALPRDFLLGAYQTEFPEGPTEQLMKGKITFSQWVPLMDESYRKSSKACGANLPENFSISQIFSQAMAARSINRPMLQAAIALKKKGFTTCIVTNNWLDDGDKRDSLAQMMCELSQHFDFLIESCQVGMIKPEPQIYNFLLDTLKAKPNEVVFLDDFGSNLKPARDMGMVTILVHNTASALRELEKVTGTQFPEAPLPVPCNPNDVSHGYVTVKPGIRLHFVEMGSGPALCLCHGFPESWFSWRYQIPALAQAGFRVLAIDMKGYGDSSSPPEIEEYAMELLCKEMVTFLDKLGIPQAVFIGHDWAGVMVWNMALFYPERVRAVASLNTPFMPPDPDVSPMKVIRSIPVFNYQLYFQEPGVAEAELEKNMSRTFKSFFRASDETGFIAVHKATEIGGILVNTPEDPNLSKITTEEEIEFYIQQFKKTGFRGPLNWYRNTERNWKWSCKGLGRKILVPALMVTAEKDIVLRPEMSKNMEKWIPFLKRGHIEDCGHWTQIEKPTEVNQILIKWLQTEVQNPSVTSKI
UniProt P34913, whole entry: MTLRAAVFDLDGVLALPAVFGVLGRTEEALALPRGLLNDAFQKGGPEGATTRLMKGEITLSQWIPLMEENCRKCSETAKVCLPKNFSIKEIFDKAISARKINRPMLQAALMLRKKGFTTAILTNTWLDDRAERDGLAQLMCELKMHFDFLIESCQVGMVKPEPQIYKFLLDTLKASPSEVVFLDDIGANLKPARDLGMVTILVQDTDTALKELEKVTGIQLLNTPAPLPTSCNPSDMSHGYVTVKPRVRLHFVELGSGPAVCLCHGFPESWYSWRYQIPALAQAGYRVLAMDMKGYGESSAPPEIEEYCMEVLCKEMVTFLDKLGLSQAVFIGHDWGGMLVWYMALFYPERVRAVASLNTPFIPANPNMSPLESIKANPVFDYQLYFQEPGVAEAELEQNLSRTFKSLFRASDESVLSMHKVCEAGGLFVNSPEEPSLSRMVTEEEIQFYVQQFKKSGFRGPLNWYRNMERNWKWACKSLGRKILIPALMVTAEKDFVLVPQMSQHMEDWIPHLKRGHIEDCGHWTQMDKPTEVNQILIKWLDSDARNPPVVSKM

As usually defined, the Ki is the equilibrium dissociation constant of an inhibitor or competing ligand from its target. One may read the IC50 as the concentration that inhibits the measured activity by half.

In assay [1] the target is purified recombinant rat sEH (Rattus norvegicus, UniProt P80299). Kind of assay: biochemical.
The target of assay [2] is recombinant mouse sEH (MsEH) (Mus musculus, UniProt P34914). In words: Inhibition of recombinant mouse sEH (MsEH). The assay is classed as biochemical.
The next assay has as its target Human sEH (HsEH) (Homo sapiens, UniProt P34913). Kind of assay: Inhibition of recombinant human sEH (HsEH).

Consider `O=C(NC1CCCCC1)NC1CCCCC1` [DCU, N,N′-dicyclohexylurea], for which, in assay [1], the Ki came to 34 nM. As for `O=C(Nc1ccc(I)cc1)NC1CCCCC1` [compound 53], the results for the IC50 (in assay [2]; at Human sEH (HsEH)) were 70 ± 10 nM and 120 ± 10 nM, respectively.

Turning to `O=C(NC1CCCCC1)NC12CC3CC(CC(C3)C1)C2` [compound 192], the IC50 in assay [2] is 50 ± 10 nM.
